# miR-21 FLuc – raises the signal of a miR-21 reporter | HeLa miR-21 FLuc reporter, luciferase, 48 h | 340,000 tested, under 10 active | Potency, µM (titrated, usually from 38.3 µM), inactives show at the highest dose reporter change, positive = more light; active = well fitted rising curve with a large enough effect; inconclusive = small, poorly fitted or top-dose-only effect; inactive = no such curve, though single readings can be large or run the other way;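 further: % of control where 0% means no effect; miR-21 action dims this reporter so a rising signal means less miR-21 action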
#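 Using DMEM plus 10% FBS, HeLa miR-21-FLuc cells are incubated with test compounds (final up to about 40uM) for 48 hours; firefly luciferase signal is then imaged following reagent-mediated lysis.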
# G9a block – blocks human histone lysine methyltransferase G9a. G9a H3K9 monomethylation, AlphaScreen, 2 h. Q96KQ7. Potency, µM (doses to about 102 µM), inactives show at the top dose activity, negative = inhibition, usual class: inhibitors. AID 504332. 8.8% of 350,000 active; note: potency is the fitted concentration of half-maximal effect; % is set by controls: 0 for no effect and ±100 for the full control effect; nearly all actives have a fitted effect of over 75% in size
#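 AlphaScreen detection with an anti-monomethyl H3K9 antibody quantified product after a 2 h room-temperature reaction containing 500 nM biotinylated H3K9 peptide, 20 µM SAM and 20 nM enzyme, which had been preincubated 15 min with compound.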
# Sfp inh – inhibitors of Bacillus subtilis Sfp phosphopantetheinyl transferase; Q9F4F7; Biochemical Sfp PPTase activity, qHTS; Potency, µM, inactives show max response, negative = inhibition, actives largely listed as inhibitors; hit rate 3.5% among 310,000; AID 1490; active means well fitted inhibition curve with a large enough effect; inconclusive means small, poorly fitted or top-dose-only effect, or another doubt; inactive means no such curve, though single readings can be large or run the other way;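 further: the enzyme is Sfp with the accession as filed and its product quenches rhodamine fluorescence; potency means the concentration at half of the fitted maximal effect; 0% = enzyme reaction without inhibitor and -100% = no enzyme wells; top concentration of the series not given in the record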
#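 Reaction rates are the 30-min fluorescence difference (ex 525, em 598 nm) in wells containing 15 nM Sfp, 5 uM rhodamine-CoA and 12.5 uM BHQ-2-YbbR at pH 7.6 with 10 mM MgCl2.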
# ALDH1A1 inh – ALDH1A1 (human) enzyme inhibition; P00352; Purified ALDH1A1, NADH fluorescence, propionaldehyde substrate; Potency, µM (series often up to 75.3 µM), without a hit: at the top dose activity, negative = inhibition, actives largely listed as inhibitors; 7.3% of 220,000 active; AID 1030; active = well fitted inhibition curve with a large enough effect, not every such curve was filed as active; inconclusive = small, poorly fitted or top-dose-only effect, or another doubt; inactive = no such curve, though single readings can be large or run the other way;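 note: potency is the fitted concentration of half-maximal effect; plate controls were no enzyme wells and a reference inhibitor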
# LMNA splice mod – changes lamin A minigene splicing in HeLa cells. HeLa LMNA splicing GFP/RFP minigene ratio, 48 h. Potency, µM (titrated, usually from 46.1 µM), for inactives: at the top dose ratio change, negative = inhibition, hits mostly inhibitors. 0.01% of 200,000 active. AID 1487; active = well fitted inhibition curve with a large enough effect in the signal ratio, with a control signal flat, not every such curve was filed as active; inconclusive = small, poorly fitted or top-dose-only effect, or effect the other way, or a change in a side signal; the % refers to the signal ratio; note: potency is the fitted concentration of half-maximal effect; % is set by controls: 0 for no effect and ±100 for the full control effect
#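 S3 HeLa stable clones carrying a lamin A-EGFP splicing minigene plus DsRed2 were seeded at 600 cells/well in Opti-MEM with 2% FBS, pin-dosed and incubated 48 h at 37°C. Acumen cytometry (488 nm) gave the GFP/RFP total-intensity ratio.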
# KDM4E inh – inhibitors of human JMJD2E histone demethylase; B2RXH2; JMJD2E catalytic domain, FDH-coupled NADH fluorescence (FDH is formaldehyde dehydrogenase); Potency, µM (top dose mostly 57.1 µM), for the others: top-dose activity change, negative = inhibition, usual class: inhibitors; 1.6% of 230,000 active; AID 2147; active = well fitted inhibition curve with a large enough effect, not every such curve was filed as active; inconclusive = small, poorly fitted or top-dose-only effect, or another doubt; inactive = no such curve, though single readings can be large or run the other way;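 note: potency is the fitted concentration of half-maximal effect; 0% = wells with enzyme and -100% = buffer wells without enzyme; nearly all actives have a fitted effect of over 50% in size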
# Numbers without * were called inactive; i = inactive; ? = inconclusive; · = not tested or not shown; [ ] = remark or other dose. In the library only some 13% were active in any assay of this set; here they are far more common. Unless noted, calls come from the whole dose curve; as a rule, active = well fitted curve in the direction sought with a large enough effect; inconclusive = small, poorly fitted or top-dose-only effect, or another doubt; inactive = no such curve, though single readings can be large; an effect the other way counts as inactive or inconclusive.
nr | molecule | miR-21 FLuc | G9a block | Sfp inh | ALDH1A1 inh | LMNA splice mod | KDM4E inh
1 | CCN(CC)CCN(C(=O)c1ccc2c(c1)OCCO2)c1nc2cc(C)cc(C)c2s1 | 0.1% | · | ? | · | · | ·
2 | CCN(CC)CCN(C(=O)CCS(=O)(=O)c1ccccc1)c1nc2cc(C)cc(C)c2s1 | 4.4% | 35.5µM* | 7.8% | · | · | ·
3 | COc1cc2ccccc2cc1C(=O)Nc1ccc2oc(-c3cccc(C)c3)nc2c1 | -5.8% | -36.0%[59 µM] | · | · | · | ·
4 | COc1ccc(NC(=O)Cc2ccc(Cl)c(Cl)c2)cn1 | -17.5% | 1.7% | 7.8% | 0.3% | · | -4.5%
5 | COc1ccc(NC(=O)/C(Cl)=C(/Cl)S(=O)Cc2ccccc2Cl)cn1 (stereo not given) | ? | 10µM* | 22.4µM* | 0.631µM* | ? | -0.8%
6 | COc1ccc(NC(=O)/C(Cl)=C(/Cl)S(=O)(=O)Cc2ccc(C)cc2)cn1 | ? | 44.7µM* | -2.9% | 2.51µM* | ? | -2.9%
7 | Cc1cccc2c1-c1sc(C(=O)NCCCN3CCN(c4cccc(Cl)c4)CC3)cc1CO2 | ? | -21.6%[59 µM] | · | · | · | ·
8 | CC(=O)Nc1ccc(S(=O)(=O)NC2=C(N3CCN(C)CC3)C(=O)c3ccccc3C2=O)cc1 | 1.3% | 50.1µM* | -9.5% | · | · | ·
9 | CCOC(=O)N1CCN(C2=C(NS(=O)(=O)c3ccc(NC(C)=O)cc3)C(=O)c3ccccc3C2=O)CC1 | 3.1% | 28.2µM* | 3.0% | · | · | ·
10 | CC(=O)Nc1ccc(S(=O)(=O)NC2=C(N3CCN(Cc4ccccc4)CC3)C(=O)c3ccccc3C2=O)cc1 | 6.2% | ? | 7.1% | 15.8µM* | ? | -11.4%
11 | CCN1CCN(C2=C(NS(=O)(=O)c3ccc(NC(C)=O)cc3)C(=O)c3ccccc3C2=O)CC1 | 15.1% | ? | -0.9% | · | · | ·
12 | CCN1CCN(C2=C(NS(=O)(=O)c3ccc(C)cc3)C(=O)c3ccccc3C2=O)CC1 | 12.2% | 39.8µM* | -2.3% | · | · | ·
13 | CCOC(=O)N1CCN(S(=O)(=O)c2ccc(NC(C)=O)cc2)CC1 | 1.6% | · | 0.8% | · | · | ·
14 | Cc1c(C(=O)OCC(=O)N(C)CC(=O)Nc2ccc(F)cc2)oc2ccccc12 | · | 8.0%[12.7 µM] | · | · | · | ·
15 | COc1ccc(OC)c(NC(=O)Cn2ccn(-c3ccc(F)cc3)c(=O)c2=O)c1 | 15.8% | -4.3%[59 µM] | · | · | 12.4%[46 µM] | ·
16 | CCc1cccc(CC)c1NC(=S)Nc1ccccc1 | -0.1% | 5.3% | 15.6% | 3.4% | -14.7%[46 µM] | 6.2%
17 | O=C1CC(c2ccco2)CC2=C1C=Nc1ccccc1N2 (stereo not given) | 7.3% | ? | ? | 2µM* | -18.2% | 6.4%
18 | c1ccc(Cc2nnc3sc(-c4ccc5c(c4)OCCO5)nn23)cc1 | -67.8% | 10µM* | ? | ? | 3.6% | ?
19 | c1ccc(Cc2nnc3sc(-c4cccnc4)nn23)cc1 | -9.7% | ? | ? | 11.2µM* | 19.3% | 6.6%
20 | CCOc1ccccc1-c1nn2c(Cc3ccccc3)nnc2s1 | -6.6% | -12.2%[59 µM] | -14.5% | ? | 5.9% | ?
21 | c1ccc(CCc2nn3c(Cc4ccccc4)nnc3s2)cc1 | -25.0% | ? | 22.4µM* | 8.91µM* | 10.3% | -14.0%
22 | c1ccc(Cc2nnc3sc(-c4ccncc4)nn23)cc1 | -10.7% | 3.55µM* | -66.9% | 7.94µM* | -0.8% | -1.1%
23 | O=C(CSc1nc2c([nH]c3ccccc32)c(=O)n1-c1ccc(Cl)cc1)N1CCc2ccccc21 | -15.1% | 29.0%[59 µM] | · | · | ? | ·
24 | Cc1cccc(OCCSc2nc3ccccc3n2CCC(=O)O)c1 | -6.4% | 9.8% | 19.2% | · | · | ·
25 | CC1Nc2ccccc2C(=O)N1NC(=O)c1ccc(Br)cc1 (stereo not given) | -13.1% | 28.7% | -13.1% | -1.4% | ? | ?
26 | c1csc(-c2nn3c(Cn4nnc5ccccc54)nnc3s2)c1 | -4.3% | ? | 9.4% | i | -8.2% | ?
27 | c1ccc(OCc2nn3c(-c4ccncc4)nnc3s2)cc1 | -0.4% | -33.8% | -0.6% | 8.4% | 8.3% | -2.9%
28 | c1ccc(Cc2nnc3sc(-c4ccccn4)nn23)cc1 | -23.1% | ? | ? | 14.1µM* | -4.0% | -1.0%
29 | c1ccc(Cc2nn3c(-c4ccncc4)nnc3s2)cc1 | -6.6% | ? | ? | 22.4µM* | 11.9% | 6.1%
30 | Clc1ccccc1-c1nnc2sc(-c3cccs3)nn12 | -16.5% | 35.5µM* | ? | 14.1µM* | ? | -9.4%
31 | c1ccc(Cc2nnc3sc(-c4cccs4)nn23)cc1 | -27.9% | 2.24µM* | 10.2% | 2.82µM* | -8.1% | -2.7%
32 | CC(C)(C)N1C(=O)[C@H]2[C@@H](c3ccc(Br)cc3)N3C(=O)N(c4cccc(Cl)c4)C(=O)[C@@]3(Cc3ccccc3)[C@H]2C1=O | · | 14.4%[2.33 µM] | · | · | · | ·
33 | CN[C@@H]1[C@H](O[C@H]2[C@H](O[C@H]3[C@H](O)[C@@H](O)[C@H](N=C(N)N)[C@@H](O)[C@@H]3N=C(N)N)O[C@@H](C)[C@]2(O)C=O)O[C@@H](CO)[C@H](O)[C@H]1O | · | 17.8µM* | 12.3% | ? | -3.3% | ·
34 | CNC1C(O)C(O)C(CO)O[C@H]1OC1C(O[C@@H]2C(O)C(O)[C@@H](N=C(N)N)C(O)C2N=C(N)N)OC(C)[C@]1(O)C=O (stereo not given in full) | · | -26.9%[2.33 µM] | 14.2% | 4.6% | · | 0.2%
35 | O=C(O)[C@@]1(CCCCCCOc2ccc(Cl)cc2)CO1 | · | · | -9.2% | · | · | ·
36 | CN(CCO)C1=NS(=O)(=O)c2cc([N+](=O)[O-])ccc21 | 19.6% | 79.4µM* | -1.5% | ? | · | ?
37 | COc1ccc(N2CCN(CC(O)COC(c3ccccc3)c3ccccc3)CC2)cc1 (stereo not given) | -3.1% | 39.8µM* | 2.2% | · | · | ·
38 | Oc1ccc(N2CCN(CC(O)c3ccccc3)CC2)cc1 (stereo not given) | -4.8% | 8.91µM* | 50.1µM* | · | · | ·
39 | CCCN1CCN(CC(O)COC(c2ccc(OC)cc2)c2ccc(OC)cc2)CC1 (stereo not given) | -4.2% | 2.82µM* | 44.7µM* | · | · | ·
40 | O=[N+]([O-])c1ccc(C(O)CN2CCN(c3ccccc3)CC2)cc1 (stereo not given) | -2.2% | 13.9% | 3.6% | · | · | ·
41 | COc1ccc(N2CCN(CC(O)COC(c3ccc(F)cc3)c3ccc(F)cc3)CC2)cc1 (stereo not given) | 4.0% | 5.62µM* | ? | · | · | ·
42 | CCCCCCCCCCCCC[N+](C)(C)Cc1ccccc1 | · | -33.7%[2.33 µM] | -88.0% | -13.2% | · | -4.0%
43 | OC(COC(c1ccccc1)c1ccccc1)CN1CCCCC1 (stereo not given) | -6.5% | -11.3%[59 µM] | -2.5% | -6.6% | -8.4% | 12.2%
44 | Cc1ccccc1C(OCC(O)CN1CCN(CCO)CC1)c1ccccc1 (stereo not given) | 0.1% | 7.94µM* | ? | · | · | ·

# With a hit mark in Sfp inh, of those listed so far:
nr	compound	miR-21 FLuc	G9a block	Sfp inh	ALDH1A1 inh	KDM4E inh
5	COc1ccc(NC(=O)/C(Cl)=C(/Cl)S(=O)Cc2ccccc2Cl)cn1 (stereo not given)	?	10µM*	22.4µM*	0.631µM*	-0.8%
21	c1ccc(CCc2nn3c(Cc4ccccc4)nnc3s2)cc1	-25.0%	?	22.4µM*	8.91µM*	-14.0%
38	Oc1ccc(N2CCN(CC(O)c3ccccc3)CC2)cc1 (stereo not given)	-4.8%	8.91µM*	50.1µM*	·	·
39	CCCN1CCN(CC(O)COC(c2ccc(OC)cc2)c2ccc(OC)cc2)CC1 (stereo not given)	-4.2%	2.82µM*	44.7µM*	·	·
